{"sequences": {"note": "Amino acid sequences for entries named in this document (tags omitted).", "UniProt O89049, whole entry": "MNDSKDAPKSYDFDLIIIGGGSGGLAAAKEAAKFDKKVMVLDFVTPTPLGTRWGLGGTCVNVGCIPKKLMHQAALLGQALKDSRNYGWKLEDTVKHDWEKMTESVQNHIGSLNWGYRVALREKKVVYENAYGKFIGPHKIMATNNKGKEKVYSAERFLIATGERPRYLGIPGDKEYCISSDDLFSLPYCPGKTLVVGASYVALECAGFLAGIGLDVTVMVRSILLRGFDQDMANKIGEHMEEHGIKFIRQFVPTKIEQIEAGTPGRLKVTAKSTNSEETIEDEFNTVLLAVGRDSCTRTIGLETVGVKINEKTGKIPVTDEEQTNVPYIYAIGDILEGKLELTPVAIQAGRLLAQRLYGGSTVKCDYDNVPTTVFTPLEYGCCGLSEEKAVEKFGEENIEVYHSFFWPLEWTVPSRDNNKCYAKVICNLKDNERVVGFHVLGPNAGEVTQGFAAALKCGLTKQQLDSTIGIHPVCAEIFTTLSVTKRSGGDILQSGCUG"}, "source": "PubChem BioAssay AID588456", "about": "(National Center for Advancing Translational Sciences (NCATS), 2011)", "note": "The entries are a selection whose mix differs from that of the whole data set. Calls of active or inactive are those of the source. Calls come from the whole dose curve; as a rule, active = well fitted inhibition curve with a large enough effect; inconclusive = small, poorly fitted or top-dose-only effect; inactive = no such curve, though single readings can be large or run the other way. % is set by controls: 0 for no effect and ±100 for the full control effect.", "data": [{"biological_target": "Thioredoxin reductase 1, cytoplasmic (Rattus norvegicus) (UniProt O89049)", "test": "qHTS Assay for Substrates of Mammalian Selenoprotein Thioredoxin Reductase 1 (TrxR1): qHTS; note: nearly all actives have a fitted effect of over 50% in size", "details": "purified TrxR1 substrate turnover, NADPH consumption readout; at 114 µM (top of the series) unless noted", "values": [{"smiles": "Cc1ccc(C(=O)NCC2(N3CCCCC3)CCCCC2)o1", "activity change, negative = substrate turnover": "inactive: 1.39%"}, {"smiles": "Fc1ccccc1NC1CCN(Cc2ccccc2)CC1", "activity change, negative = substrate turnover": "inactive: 4.49%"}, {"smiles": "COc1cc(OC)cc(C(=O)NCC2(N3CCCCC3)CCCCC2)c1", "activity change, negative = substrate turnover": "inactive: 8.5% [at 57.1 µM]"}, {"smiles": "CN(C)C1(CNC(=O)c2ccc(C(C)(C)C)cc2)CCCCC1", "activity change, negative = substrate turnover": "inactive: 0.449%"}, {"smiles": "CC(=O)N(c1ccccc1)C1CCNCC1", "activity change, negative = substrate turnover": "inactive: -8.68%"}, {"smiles": "CN1CCC(Nc2ccc(Cl)cc2)CC1", "activity change, negative = substrate turnover": "inactive: 2.12%"}, {"smiles": "CCC(CO)(C(=O)OC1CN2CCC1CC2)c1ccccc1", "note": "(stereo unspecified)", "activity change, negative = substrate turnover": "inactive: 9.43%"}, {"smiles": "COc1cccc(C(=O)N(c2cc(C)cc(C)c2)C2CCN(C(=O)OC(C)(C)C)CC2)c1", "activity change, negative = substrate turnover": "inactive: -6.73%"}, {"smiles": "COc1cc(OC)cc(C(=O)NCC2(N3CCOCC3)CCCCC2)c1", "activity change, negative = substrate turnover": "inactive: 7.8%"}, {"smiles": "COc1cc(C(=O)NCC2(N3CCOCC3)CCCCC2)cc(OC)c1OC", "activity change, negative = substrate turnover": "inactive: 4.86%"}, {"smiles": "ClCCN(CCCl)c1ccccc1", "activity change, negative = substrate turnover": "inactive: -0.0035%"}, {"smiles": "CCCOc1ccc(C(=O)NCC2(N(C)C)CCCCC2)cc1", "activity change, negative = substrate turnover": "inactive: 10.7%"}, {"smiles": "CC(C)(C)OC(=O)N1CCC(Nc2ccccc2)CC1", "activity change, negative = substrate turnover": "inactive: 1.83%"}, {"smiles": "ClCCN(CCCl)c1ccc(C=C2C=CC=C2)cc1", "activity change, negative = substrate turnover": "inactive: -8.08%"}, {"smiles": "O=C(O)C1(Nc2ccccc2)CCN(Cc2ccccc2)CC1", "activity change, negative = substrate turnover": "inactive: -0.0502%"}, {"smiles": "CCOc1ncccc1C(=O)NCC1(N2CCOCC2)CCCCC1", "activity change, negative = substrate turnover": "inactive: -6.17%"}, {"smiles": "CN1CCC(Nc2ccc(F)c(Cl)c2)CC1", "activity change, negative = substrate turnover": "inactive: -4.06% [at 57.1 µM]"}, {"smiles": "CCc1cc(C(=O)NCC2(N3CCCCC3)CCCCC2)sc1C", "activity change, negative = substrate turnover": "inactive: -6%"}, {"smiles": "O=C(OC1CN2CCC1CC2)C1c2ccccc2C=Cc2ccccc21", "note": "(stereo unspecified)", "activity change, negative = substrate turnover": "inactive: 24.6%"}, {"smiles": "O=C(O)c1cccc(Nc2c([N+](=O)[O-])cc([N+](=O)[O-])cc2[N+](=O)[O-])c1", "activity change, negative = substrate turnover": "inactive: -13.3%"}, {"smiles": "N/C(=N\\O)c1c(N)no[n+]1[O-]", "activity change, negative = substrate turnover": "inactive: -1.45%"}, {"smiles": "CCOC(=O)N1CCC(Nc2ccc(C)cc2)CC1", "activity change, negative = substrate turnover": "inactive: 6.82% [at 57.1 µM]"}, {"smiles": "COc1ccc(C(=O)NCC2(N3CCOCC3)CCCCC2)cc1OC", "activity change, negative = substrate turnover": "inactive: -14.5%"}, {"smiles": "O=Cc1ccc(N(CCCl)CCCl)cc1", "activity change, negative = substrate turnover": "inactive: -0.313%"}, {"smiles": "O=C(NCC1(N2CCOCC2)CCCCC1)c1cc(Br)ccc1Cl", "activity change, negative = substrate turnover": "inactive: 5.65%"}, {"smiles": "COc1cc(C(=O)NCC2(N3CCOCC3)CCCCC2)cc(OC)c1C", "activity change, negative = substrate turnover": "inactive: 3.42%"}, {"smiles": "c1ccc(CN2CCC(Nc3ccccc3)CC2)cc1", "activity change, negative = substrate turnover": "inactive: -4.01%"}, {"smiles": "Cc1cc(N(CCCl)CCCl)ccc1C=O", "activity change, negative = substrate turnover": "inactive: 7.06% [at 11.4 µM]"}, {"smiles": "O=C(NCC1(N2CCOCC2)CCCCC1)c1ccccc1", "activity change, negative = substrate turnover": "inactive: -1.32%"}, {"smiles": "CCCN1CCC(Nc2cc(OC)cc(OC)c2)CC1", "activity change, negative = substrate turnover": "inactive: 5.84% [at 57.1 µM]"}, {"smiles": "CN(C)C1(CNC(=O)c2cccc(C#N)c2)CCCCC1", "activity change, negative = substrate turnover": "inactive: 6.91% [at 57.1 µM]"}, {"smiles": "CCOC(=O)C(CC)C1=NC(C)(C)Cc2ccccc21.O=[N+]([O-])c1cc([N+](=O)[O-])c(O)c([N+](=O)[O-])c1", "note": "(stereo unspecified)", "activity change, negative = substrate turnover": "inactive: -15.3%"}, {"smiles": "CC(C)(C)OC(=O)N1CCC(N(C(=O)c2ccccc2)c2ccc(Cl)cc2)CC1", "activity change, negative = substrate turnover": "inactive: -5.4%"}, {"smiles": "O=C(NCC1(N2CCOCC2)CCCCC1)c1ccc([N+](=O)[O-])cc1", "activity change, negative = substrate turnover": "inactive: 6%"}, {"smiles": "O=C(NCC1(N2CCOCC2)CCCCC1)c1ccccc1[N+](=O)[O-]", "activity change, negative = substrate turnover": "inactive: 1.17%"}, {"smiles": "N#Cc1ccc(C(=O)NCC2(N3CCCCC3)CCCCC2)cc1", "activity change, negative = substrate turnover": "inactive: 0.316% [at 57.1 µM]"}]}]}
